Results published in patent US20230287061A1, “NEW ANTIMICROBIAL PEPTIDES” (priority 2020, published 2023).

Tested on: Listeria monocytogenes
Experiment: Challenge test on meat model (agar-salami)
Format: cell-based
Details: peptide at 256 μg/ml

For `CC[C@H](C)[C@H](NC(=O)CNC(=O)CNC(=O)[C@H](CCCCN)NC(=O)[C@H](CCCNC(=N)N)NC(=O)[C@H](CCCNC(=N)N)NC(=O)[C@H](CS)NC(=O)[C@H](CCCNC(=N)N)NC(=O)[C@@H](NC(=O)[C@H](CCCNC(=N)N)NC(=O)[C@H](CCCNC(=N)N)NC(=O)[C@H](Cc1ccc(O)cc1)NC(=O)[C@@H](NC(=O)[C@@H](N)C(C)C)C(C)C)C(C)C)C(=O)N[C@@H](CCCNC(=N)N)C(=O)N[C@@H](Cc1ccccc1)C(=O)N[C@@H](C)C(=O)N[C@H](C(=O)N[C@@H](CC(N)=O)C(=O)NCC(=O)O)[C@@H](C)CC` [Seq ID no1], the “L. monocytogenes level whose growth is inhibited” value was 10^2 UFC/g.
